## Curated experimental data: melting point values

From the experimental data distributed with OPERA 2.9.

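The OPERA project collected these measurements from public sources as training and test data for property models. One number stands for a compound and property, with no spread given. Conditions of the individual experiments are not part of the data. Where a salt, mixture or single isomer is drawn, the source does not say that exactly this form was tested. Some upstream entries may be estimates or bounds without being marked so.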

Melting points are in °C.
"via" names the databases from which the curators took the value.

melting point (°C) | SMILES | via
144 | Cc1ccc(C(=O)O)cc1S(=O)(=O)Cl | OCHEM
-33.09 | OCCC(F)(F)C(F)(F)C(F)(F)C(F)(F)C(F)(F)C(F)(F)F | eChemPortal
184.5 | COc1ccccc1/C=C/C(=O)O | OCHEM
179.4 | C[N+](C)(C)CC(O)CC(=O)O.C[N+](C)(C)CC(O)CC(=O)O.O=C([O-])C(O)C(O)C(=O)[O-] | eChemPortal
36 | Cc1ccc(SCCC(=O)O)cc1C | OCHEM
75.5 | Fc1nccc(Br)c1Br | OCHEM
-58 | CCCCCCCCCCCCCOC(=O)CCCCC(=O)OCCCCCCCCCCCCC | eChemPortal
108 | Nc1ccc(CC(=O)N2CCCC2)cc1 | OCHEM
64 | Cc1ccc(C(=O)C(=O)c2ccccc2)cc1C | OCHEM
100 | NNC(=O)CNc1ccccc1F | OCHEM
104.5 | Cc1cnc(Br)c(N)c1 | OCHEM
202 | O=C1C=CC(Cl)=CC1=C1C=CNO1 | OCHEM
152 | O=c1nn[nH]n1-c1cccs1 | OCHEM
73 | CC(C)(C)OC(=O)N1CCC(CC#N)CC1 | OCHEM
111 | O=Cc1ccc(-c2ccc(Br)cc2)s1 | OCHEM
157 | O=C(O)CCNS(=O)(=O)c1ccc(Cl)cc1 | OCHEM
166 | CC(=O)NC(CC(=O)O)c1ccccc1 (stereo unspecified) | OCHEM
150 | CCCCCCC(O)CCCCCCCCCCC(=O)[O-].CCCCCCC(O)CCCCCCCCCCC(=O)[O-].[Zn+2] (stereo unspecified) | eChemPortal
125 | O=Cc1csc(-c2ccc(Cl)cc2)n1 | OCHEM
343.5 | O=c1[nH][nH]c(=O)c2ccccc12 | OCHEM
189 | Cc1ccc(S(=O)(=O)N(C)c2ccc(C(=O)O)cc2)cc1 | OCHEM
186.9 | Cc1cc2nc(N)sc2cc1C | PubChem
218.5 | O=C(O)C=Cc1ccc(Br)cc1F | OCHEM
119 | CN1CCN(C(=O)CC#N)CC1 | OCHEM
226 | Cc1ccc(-c2n[nH]c(=S)[nH]c2=O)cc1 | OCHEM
62 | CC(O)c1cc(Cl)ccc1Cl (stereo unspecified) | OCHEM
-67.65 | C[Si](Cl)(Cl)CCC(F)(F)F | eChemPortal
231 | Nn1cnc2ccc(Br)cc2c1=O | OCHEM
-8 | CCCCCCCCCCCC(=O)OC(C)C | eChemPortal
235 | S=c1nc2ncccn2[nH]1 | OCHEM

Again, the 3 entries with the lowest melting point:

| SMILES | melting point (°C) | via |
|---|---|---|
| C[Si](Cl)(Cl)CCC(F)(F)F | -67.65 | eChemPortal |
| CCCCCCCCCCCCCOC(=O)CCCCC(=O)OCCCCCCCCCCCCC | -58 | eChemPortal |
| OCCC(F)(F)C(F)(F)C(F)(F)C(F)(F)C(F)(F)C(F)(F)F | -33.09 | eChemPortal |